Molecular target: T1, Carbonic anhydrase (Methanobacterium thermoautotrophicum, UniProt Q50565)
T1 sequence (Q50565 whole entry): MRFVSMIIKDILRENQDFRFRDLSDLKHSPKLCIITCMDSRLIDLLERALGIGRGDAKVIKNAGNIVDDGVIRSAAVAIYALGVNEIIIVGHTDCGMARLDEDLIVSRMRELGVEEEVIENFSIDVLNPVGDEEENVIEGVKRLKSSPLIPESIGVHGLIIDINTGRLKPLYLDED
Parameters: species or system Methanothermobacter thermautotrophicus str. Delta H

Question: For `O=S(=O)(O)O` [SULFURIC ACID], which Ki is on record?
Answer: Its Ki is 950 mM.

— ChEMBL document CHEMBL1137924, “Carbonic anhydrase inhibitors. Inhibition of the beta-class enzyme from the methanoarchaeon Methanobacterium thermoautotrophicum (Cab) with anions” (Bioorg Med Chem Lett, 2004)
